Legend:
[1] = Carbon nanotube dispersibility test; format: physicochemical; conditions: 0.25 g compound, 0.75 g water, 0.025 g carbon nanotubes; visual
cytochrome C [2] = target: T1, cytochrome C (Equus caballus, UniProt P00004); test: Protein long-term stability, 50% aqueous solution; parameters: species or system Horse; conditions: cytochrome C in 50 wt % aqueous solution of compound, 40° C.
DNA = DNA long-term stability, 50% aqueous solution; conditions: 40° C., 80% RH
urease [3] = target: T2, urease (Canavalia ensiformis, UniProt P07374); test: Enzyme long-term stability (1): urease activity retention, solid sample; format: biochemical, sword bean; conditions: 40° C., 80% RH
cytochrome C [4] = target: T1, cytochrome C; test: Protein long-term stability (IR and UV spectrum), solid sample; parameters: species or system Horse; conditions: 40° C., 80% RH
[5] = Organic dye dispersibility test; format: physicochemical; conditions: 0.2 g compound, 0.7 g water, 0.1 g Vali Fast Black 3830; ultrasonic dispersion; after 24 hours; visual
urease [6] = target: T2, urease; test: Enzyme long-term stability (1): urease activity retention, 50% aqueous solution; format: biochemical, sword bean; conditions: urease in 50 wt % aqueous solution of compound, 40° C., 80% RH
urease [7] = target: T2, urease; conditions: 40° C., 80% RH
[8] = Metal oxide dispersibility test (titanium oxide); format: physicochemical; conditions: 0.25 g compound, 0.50 g water, 0.10 g titanium oxide (IV); visual
[9] = Metal oxide dispersibility test (zirconium oxide); format: physicochemical; conditions: 0.25 g compound, 0.50 g water, 0.10 g zirconium oxide (IV); visual

Amino acid sequences for entries named in this document (tags omitted). A change or cut given only in a name is not applied to a line headed by its entry.
UniProt P00004: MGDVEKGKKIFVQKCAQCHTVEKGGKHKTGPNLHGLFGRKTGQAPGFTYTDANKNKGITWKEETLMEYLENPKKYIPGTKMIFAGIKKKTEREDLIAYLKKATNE
UniProt P07374, whole entry, looked up: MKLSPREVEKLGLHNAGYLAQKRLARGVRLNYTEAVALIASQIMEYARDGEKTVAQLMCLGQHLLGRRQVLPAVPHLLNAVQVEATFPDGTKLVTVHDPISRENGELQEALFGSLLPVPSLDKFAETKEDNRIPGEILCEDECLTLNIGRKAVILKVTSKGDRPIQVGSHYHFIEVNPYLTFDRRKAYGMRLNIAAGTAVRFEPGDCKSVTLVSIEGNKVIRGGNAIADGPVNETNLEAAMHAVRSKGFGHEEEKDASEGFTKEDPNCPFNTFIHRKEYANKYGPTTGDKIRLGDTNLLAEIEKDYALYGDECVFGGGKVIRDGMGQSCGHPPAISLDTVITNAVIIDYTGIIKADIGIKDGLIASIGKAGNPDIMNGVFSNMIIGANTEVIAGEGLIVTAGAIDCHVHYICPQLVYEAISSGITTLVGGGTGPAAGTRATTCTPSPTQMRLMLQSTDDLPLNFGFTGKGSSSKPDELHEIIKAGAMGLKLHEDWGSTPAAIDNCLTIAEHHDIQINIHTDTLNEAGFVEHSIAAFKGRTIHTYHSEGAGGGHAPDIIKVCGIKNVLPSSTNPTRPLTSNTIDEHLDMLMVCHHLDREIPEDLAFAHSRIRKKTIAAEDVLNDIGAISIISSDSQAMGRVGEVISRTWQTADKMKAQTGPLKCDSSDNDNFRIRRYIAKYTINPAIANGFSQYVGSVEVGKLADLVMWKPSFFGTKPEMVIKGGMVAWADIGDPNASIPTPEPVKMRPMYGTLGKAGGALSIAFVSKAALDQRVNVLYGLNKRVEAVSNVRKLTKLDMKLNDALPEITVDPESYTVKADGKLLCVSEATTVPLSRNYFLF

OCCN(CCO)CCO
Carbon nanotube dispersibility [1]: ○
Protein long-term stability (after 30 days) Stabilize:Protein = 1:1 (cytochrome C [2]): ○
DNA long-term stability (after 30 days) Stabilizer: DNA = 1:1 (DNA): ○
Enzyme activity retention rate(%) (after 30 days) Stabilizer: Enzyme = 0.1:1 (urease [3]; Stabilizer:Enzyme = 0.1:1): 14%
Enzyme activity retention rate(%) (after 30 days) Stabilizer: Enzyme = 1:1 (urease [3]; Stabilizer:Enzyme = 1:1): 41%
Protein long-term stability (after 30 days) Stabilizer: Protein = 0.1:1 (cytochrome C [4]; Stabilizer:Protein = 0.1:1): ◯
Protein long-term stability (after 30 days) Stabilizer: Protein = 1:1 (cytochrome C [4]; Stabilizer:Protein = 1:1): ◯
Protein long-term stability (after 30 days) Stabilizer: Protein = 10:1 (cytochrome C [4]; Stabilizer:Protein = 10:1): ◯
Dye dispersibility [5]: ○
Enzyme activity retention rate(%) (after 30 days) Stabilizer: Enzyme = 1:1 (urease [6]): 11%
Enzyme activity retention rate (%) (after 30 days) Stabilizer:Enzyme = 1:1, Mixed by mortar (urease [7]; solid sample mixed by mortar): 5%
Enzyme activity retention rate (%) (after 30 days) Stabilizer:Enzyme = 1:1, Solvent distilled away from dissolution solution (urease [7]; solid sample, solvent distilled away from dissolution solution): 41%
Titanium oxide dispersibility [8]: ○
Zirconium oxide dispersibility [9]: ○

— patent publication US20240057587A1, “ORGANIC AMMONIUM SALT AND HYDROGEN-BONDING MATERIAL TREATMENT AGENT USING SAME” (MIYOSHI OIL & FAT CO.,LTD., priority 2019, published 2024)
